# Source: US20170280720A1, “ARGININE METHYLTRANSFERASE INHIBITORS AND USES THEREOF” (EPIZYME, INC., priority 2014, published 2017)
# Protein sequences, listed by entry. Tags and fused reporters are not part of them. Chains listed by the source or under a name are the forms on record and can include a tag or linker. Residues count along the entry.
# UniProt Q99873, 1-371 with tags or gaps: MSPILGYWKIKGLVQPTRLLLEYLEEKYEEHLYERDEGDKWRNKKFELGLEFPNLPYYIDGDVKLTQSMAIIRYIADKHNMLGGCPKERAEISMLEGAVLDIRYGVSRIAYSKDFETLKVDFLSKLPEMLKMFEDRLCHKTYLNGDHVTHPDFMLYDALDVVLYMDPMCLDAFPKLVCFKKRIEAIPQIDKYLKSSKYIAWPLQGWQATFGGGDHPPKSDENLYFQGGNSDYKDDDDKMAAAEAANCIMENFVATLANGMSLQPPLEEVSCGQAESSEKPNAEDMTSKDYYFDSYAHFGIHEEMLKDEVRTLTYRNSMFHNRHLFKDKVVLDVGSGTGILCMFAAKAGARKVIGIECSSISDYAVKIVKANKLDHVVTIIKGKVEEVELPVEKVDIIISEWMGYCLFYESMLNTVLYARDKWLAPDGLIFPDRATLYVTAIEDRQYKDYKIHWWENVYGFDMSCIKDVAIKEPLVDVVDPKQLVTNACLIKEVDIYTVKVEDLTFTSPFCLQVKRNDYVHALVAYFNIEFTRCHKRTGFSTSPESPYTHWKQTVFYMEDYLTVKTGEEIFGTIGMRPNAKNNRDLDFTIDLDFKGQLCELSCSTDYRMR
# UniProt O14744, whole entry: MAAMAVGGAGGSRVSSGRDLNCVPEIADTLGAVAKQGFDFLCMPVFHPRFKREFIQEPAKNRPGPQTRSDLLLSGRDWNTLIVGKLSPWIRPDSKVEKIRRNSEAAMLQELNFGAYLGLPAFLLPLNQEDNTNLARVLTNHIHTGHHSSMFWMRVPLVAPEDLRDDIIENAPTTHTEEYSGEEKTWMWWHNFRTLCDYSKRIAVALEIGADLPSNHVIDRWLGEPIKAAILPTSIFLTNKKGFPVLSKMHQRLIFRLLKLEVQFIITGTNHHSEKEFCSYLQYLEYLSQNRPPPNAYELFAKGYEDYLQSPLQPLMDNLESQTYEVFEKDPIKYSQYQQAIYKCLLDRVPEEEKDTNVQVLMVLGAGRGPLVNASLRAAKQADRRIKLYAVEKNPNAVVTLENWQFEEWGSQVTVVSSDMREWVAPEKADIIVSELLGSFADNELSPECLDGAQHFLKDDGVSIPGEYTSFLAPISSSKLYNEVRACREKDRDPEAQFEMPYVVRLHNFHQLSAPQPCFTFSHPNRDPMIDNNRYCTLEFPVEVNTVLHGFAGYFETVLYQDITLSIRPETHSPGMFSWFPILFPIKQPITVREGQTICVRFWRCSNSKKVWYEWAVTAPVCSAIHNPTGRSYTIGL
# UniProt Q86X55, 2-585 isoform 1 limits assumed: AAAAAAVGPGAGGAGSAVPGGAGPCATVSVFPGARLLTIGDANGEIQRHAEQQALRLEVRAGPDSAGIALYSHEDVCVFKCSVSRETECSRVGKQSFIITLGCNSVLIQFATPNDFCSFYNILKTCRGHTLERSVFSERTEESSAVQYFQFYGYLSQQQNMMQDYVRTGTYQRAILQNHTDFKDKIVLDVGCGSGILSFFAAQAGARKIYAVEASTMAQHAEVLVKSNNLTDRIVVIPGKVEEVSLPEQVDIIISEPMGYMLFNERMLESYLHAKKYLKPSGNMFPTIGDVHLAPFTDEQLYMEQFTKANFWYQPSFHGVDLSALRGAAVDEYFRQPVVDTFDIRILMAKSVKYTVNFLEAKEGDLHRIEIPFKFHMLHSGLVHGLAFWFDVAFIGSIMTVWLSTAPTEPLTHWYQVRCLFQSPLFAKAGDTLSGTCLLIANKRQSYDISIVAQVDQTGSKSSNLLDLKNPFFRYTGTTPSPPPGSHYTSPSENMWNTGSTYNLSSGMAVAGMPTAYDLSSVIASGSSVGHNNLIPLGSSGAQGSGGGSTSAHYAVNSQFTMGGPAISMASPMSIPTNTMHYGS
# UniProt Q9BQA1, whole entry partner: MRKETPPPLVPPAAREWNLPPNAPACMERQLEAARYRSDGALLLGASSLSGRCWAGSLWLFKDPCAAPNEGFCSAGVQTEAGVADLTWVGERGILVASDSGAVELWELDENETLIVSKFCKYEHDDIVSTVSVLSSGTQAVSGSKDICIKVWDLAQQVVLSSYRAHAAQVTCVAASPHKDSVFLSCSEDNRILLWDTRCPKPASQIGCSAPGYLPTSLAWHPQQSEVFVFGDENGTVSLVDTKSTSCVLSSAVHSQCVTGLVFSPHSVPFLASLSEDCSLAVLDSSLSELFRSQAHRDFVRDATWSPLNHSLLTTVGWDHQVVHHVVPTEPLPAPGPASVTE
# What was measured:
# [1] = biological target: human PRMT1 (Homo sapiens, UniProt Q99873); assay: PRMT1 biochemical assay (3H-SAM Flashplate, peptide substrate); details: read-out: PRMT1_ IC50
# Description: (§1) S-adenosylmethionine (SAM), S-adenosylhomocysteine (SAH), bicine, Tween20, dimethylsulfoxide (DMSO), bovine skin gelatin (BSG), and Tris(2-carboxyethyl)phosphine hydrochloride solution (TCEP) were purchased from Sigma-Aldrich at the highest level of purity possible. ^3H-SAM was purchase from American Radiolabeled Chemicals with a specific activity of 80 Ci/mmol. 384-well streptavidin Flashplates were purchased from PerkinElmer.
# (§2) Peptide representative of human histone H4 residues 36-50 was synthesized with an N-terminal linker-affinity tag motif and a C-terminal amide cap by 21st Century Biochemicals. The peptide was purified by high-performance liquid chromatography (HPLC) to greater than 95% purity and confirmed by liquid chromatography mass spectrometry (LC-MS). The sequence was Biot-Ahx-RLARRGGVKRISGLI-amide (SEQ ID NO.: 1).
# Full-length human PRMT1 isoform 1 (NM_001536.5) transcript clone was amplified from an HEK 293 cDNA library, incorporating flanking 5′ sequence encoding a FLAG tag (DYKDDDDK) (SEQ ID NO.: 2) fused directly to Met 1 of PRMT1. The amplified gene was subcloned into pFastBacI (Life Technologies) modified to encode an N-terminal GST tag and a TEV cleavage sequence ([…] […] […] […] QGGNS)(SEQ ID NO.: 3) fused to Asp of the Flag tag of PRMT1.
# Recombinant baculovirus were generated according to Bac-to-Bac kit instructions (Life Technologies). […]
# [2] = biological target: PRMT5 (Homo sapiens, UniProt O14744); assay: PRMT5 IC50 (Table 2; no method described); format: biochemical; details: read-out: PRMT5_ IC50
# [3] = biological target: Human CARM1 (PRMT4) (Homo sapiens, UniProt Q86X55); assay: CARM1 biochemical assay (3H-SAM Flashplate, peptide substrate); details: read-out: CARM1_ IC50
# Description: as §1, with “(BSG), sodium butyrate” for “(BSG),”
# as §2, with “H3” for “H4”, “16-30” for “36-50”, “Biot-Ahx-PRKQLATKAARKSAP-amide and contained a monomethylated arginine at position 26” for “Biot-Ahx-RLARRGGVKRISGLI-amide”, “14).” for “1).”
# Human CARM1 (PRMT4) (NM_199141.1) transcript clone was amplified from an HEK 293 cDNA library, incorporating a flanking 5′ sequence encoding a FLAG tag (MDYKDDDDK) (SEQ ID NO.: 6) fused directly to Ala 2 of CARM1 and 3′ sequence encoding a hexa His sequence (EGHHHHHH) (SEQ ID NO.: 15) fused directly to Ser 608. The gene sequence encoding isoform1 containing a deletion of amino acids 539-561 was amplified subsequently and subcloned into pFastBacMam (Viva Biotech). […]
smiles,measurement,setting,value
Cc1cc(C)c(CNC(=O)c2ccc(-c3ccc(CNCCN)cc3)[nH]2)c(=O)[nH]1,IC50,[1],0.128 µM
same,IC50,[2],0.399 µM
same,IC50,[3],9.95 µM
